This data set concerns cancer cells (SKOV-3 and HSC-2). Description: Cytotoxicity to cancer cells, PrestoBlue cell viability, 96 h. The note with it: concentrations up to 100 nM. The method, then:
Human ovarian cancer cell line SKOV-3 (ATCC, Manassas, Va., USA) and head-and-neck squamous cell carcinoma cell line HSC-2 (Japanese Collection of Research Bioresources, Osaka, Japan) were grown according to the suppliers' recommendations. Log phase cultures were collected and cells were seeded onto 96-well plates and incubated for 24 h. Serial dilutions of test molecules were added to cells and cultures were incubated further for 96 h. Cell viability was evaluated using PrestoBlue cell viability reagent (Life Technologies, Carlsbad, Calif., USA) according to the manufacturer's instructions. Cells were incubated for 2 h, and dye reduction was measured by absorbance at 570 nm. The compounds were assayed 1-2 times in triplicate.
The results are expressed in Table 1 as IC50 values.

In the case of “Cet-MMAG: cetuximab-VC-PAB-MMAG antibody-drug conjugate with drug-to-antibody ratio of 1:1”, the “Cytotoxicity (in words)” value was “increased cytotoxicity compared to MMAE”.

(Values after US10973920B2, “Saccharide derivative of a toxic payload and antibody conjugates thereof” (priority 2014, dated 2021).)
